From patent publication EP4825847A1, “NMDA RECEPTOR ANTAGONIST AND USE THEREOF” (dated 2026) come the findings set out here.

Amino acid sequences for entries named in this document (tags omitted). Residues count along the entry.
UniProt Q12879, 23-1464 limits assumed: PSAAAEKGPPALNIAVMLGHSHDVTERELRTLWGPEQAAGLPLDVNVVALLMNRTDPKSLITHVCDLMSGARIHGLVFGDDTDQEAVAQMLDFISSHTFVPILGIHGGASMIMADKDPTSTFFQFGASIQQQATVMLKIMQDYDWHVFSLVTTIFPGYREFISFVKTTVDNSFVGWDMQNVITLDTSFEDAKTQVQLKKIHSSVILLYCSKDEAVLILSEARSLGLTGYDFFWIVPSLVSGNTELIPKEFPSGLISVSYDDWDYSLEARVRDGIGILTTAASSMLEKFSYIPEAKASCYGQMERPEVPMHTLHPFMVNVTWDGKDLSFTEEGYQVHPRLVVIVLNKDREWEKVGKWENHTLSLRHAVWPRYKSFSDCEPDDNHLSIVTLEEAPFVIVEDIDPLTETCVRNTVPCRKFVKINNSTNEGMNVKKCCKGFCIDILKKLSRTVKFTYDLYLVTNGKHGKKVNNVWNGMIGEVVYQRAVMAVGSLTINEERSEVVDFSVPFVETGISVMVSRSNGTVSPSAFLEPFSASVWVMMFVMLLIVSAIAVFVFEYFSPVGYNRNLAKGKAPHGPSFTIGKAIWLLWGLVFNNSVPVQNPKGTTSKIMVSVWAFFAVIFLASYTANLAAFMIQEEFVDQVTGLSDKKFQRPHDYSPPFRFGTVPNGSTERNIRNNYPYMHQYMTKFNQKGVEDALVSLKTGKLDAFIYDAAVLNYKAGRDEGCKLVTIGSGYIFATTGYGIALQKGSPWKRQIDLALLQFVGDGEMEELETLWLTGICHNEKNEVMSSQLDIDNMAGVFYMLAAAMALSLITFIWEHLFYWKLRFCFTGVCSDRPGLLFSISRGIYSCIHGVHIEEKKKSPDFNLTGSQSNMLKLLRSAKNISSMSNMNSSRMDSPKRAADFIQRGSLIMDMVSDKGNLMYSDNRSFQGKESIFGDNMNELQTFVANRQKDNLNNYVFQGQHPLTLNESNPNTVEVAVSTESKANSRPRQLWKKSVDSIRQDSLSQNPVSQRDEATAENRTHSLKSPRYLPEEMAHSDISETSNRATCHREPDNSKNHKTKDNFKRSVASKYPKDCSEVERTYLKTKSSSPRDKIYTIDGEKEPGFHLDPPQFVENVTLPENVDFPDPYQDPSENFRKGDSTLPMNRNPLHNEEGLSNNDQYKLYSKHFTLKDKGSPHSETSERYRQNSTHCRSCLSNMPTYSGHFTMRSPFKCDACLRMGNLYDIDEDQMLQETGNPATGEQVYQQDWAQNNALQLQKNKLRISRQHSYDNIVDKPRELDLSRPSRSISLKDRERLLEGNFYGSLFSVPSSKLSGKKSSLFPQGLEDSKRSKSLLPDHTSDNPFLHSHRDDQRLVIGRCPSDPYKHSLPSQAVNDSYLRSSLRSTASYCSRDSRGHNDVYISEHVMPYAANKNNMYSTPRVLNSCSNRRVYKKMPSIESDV

Counter-ions that a name gives are not always drawn.

In series [1] the target is human NMDA receptor GluN1 and GluN2A subunits (Homo sapiens, UniProt Q05586+Q12879). Description: Whole-cell patch-clamp recording of NMDA receptor-mediated current in HEK293 cells. As to conditions: for IC50: read-out: IC50 (µM) inhibition on NMDAR-mediated current, fitted from 10, 3, 1, 0.3, 0.1, 0.03 µM; for % (10 µM) inhibition on NMDAR-mediated current: compound at 10 µM, glutamic acid 100 µM. Here is the method: The day before transfection, HEK293 cells were inoculated into a 24-well plate with a 10 mm glass slide, and the glass slide was coated with polylysine in advance to increase the cell attachment. DMEM medium containing 10% FBS was added, and the cells were cultured in an incubator at 37°C and 5% CO2. When the cells were grown to 60%-70% confluency after 18-24 hrs, TRE-GluN1-GluN2A containing human GluN1 and GluN2A, and the plasmid cDNAs of tTA and pCAG-EGFP were transfected into HEK293 cells by lipofectin transfection (TRE-GluN1-GluN2A: tTA: pCAG-EGFP was 0.2 µg : 0.2 µg : 0.02 µg). Before transfection, a new DMEM medium was changed, and 1 µg/mL Dox (doxycycline) was added to the medium to induce stable expression. 100 µM D-APV and 10 mM MgCl2 were added to avoid excitotoxicity to cells caused by NMDAR overexpression. About 24 hrs after transfection, the cells with green fluorescence were selected for electrophysiological recording.
The glass slide inoculated with HEK293 cells was placed in a recording chamber, and an extracellular solution (NaCl 140 mM, KCl 2.8 mM, HEPES 10 mM, CaCl2 1 mM, glycine 0.1 mM, pH7.2) was perfused at a speed of 4 mL/ min. The channels of the ALA-VC^3 eight-channel pressurized perfusion system were filled with an extracellular solution for washing, an extracellular solution containing glutamic acid (100 µM), and an extracellular solution containing glutamic acid and the compound to be tested respectively. The dripping rate was approximately 1 drop per sec, with a volume of 10 µL per drop. HEK293 cells with moderate green fluorescence intensity and good attachment were recorded under a fluorescence microscope. The delivery glass microtube of the perfusion system was positioned at a distance of approximately ten cell diameters away from the cell to be recorded. The drug was sprayed on the cell surface under air pressure (0.02 MPa). The glass electrode with a resistance of 4-6 MΩ was drawn with a microelectrode drawing instrument, and filled with an internal solution (CsCl 125 mM, HEPES 10 mM, EGTA 11 mM). Using a microelectrode manipulator, the glass electrode was slowly pushed to the cells. After the electrode was attached to the cell membrane, a negative pressure was applied, to form a high-resistance seal of 1 GΩ or higher between the electrode tip and the cell membrane, and then a negative pressure was applied to rupture the cell member and establish a whole-cell recording configuration. After the whole cell recording configuration was formed, the cell membrane potential was clamped at -70 mV. The extracellular solution containing 100 µM glutamic acid, the extracellular solution containing 100 µM glutamic acid and the compound to be tested, and the extracellular fluid were sprayed by the perfusion system on the surface of the cell membrane in sequence, for a time of 10 s, 20 s, and 10 s respectively. The NMDA receptor-mediated current was recorded to evaluate the inhibitory effect of the compound to be tested on NMDAR containing GluN2A. The test process was controlled by pCLAMP 10.6, and the stimulation signal is generated and the feedback signal is collected by using Digidata 1440A digital-to-analog converter.
In the test, the inhibition (%) on NMDAR-mediated current was evaluated after the compound was administered at a concentration of 10 µM, or the inhibition of the compound at 10, 3, 1, 0.3, 0.1, and 0.03 µM were tested, and fitted to obtain the IC50 value.
The inhibition percentage (inhibition rate) of the compound of the present invention on NMDAR-mediated current = (1- NMDAR-mediated current after administration/NMDAR-mediated current before administration)*100%. The inhibition rates of the compound at 10, 3, 1, 0.3, 0.1, and 0.03 µM were imported into Graphpad prism software, and subjected to Nonlinear Regression analysis. The IC50 value was automatically calculated by curve fitting.
For orientation: Patch clamp records ionic current or voltage across a cell membrane.

Series [2] in a line: Solution stability: purity of the solution over 24 hrs in the solubility test. As to conditions: for solution stability: summary in words. Here is the method:
The solubilities of different forms of the compounds in media with different pH values were tested. The compound sample was weighed into a glass flask, and 1 mL or 2 mL of phosphate buffer pH=6.0, pure water, phosphate buffer pH=8.0, and/or 0.9% physiological saline respectively was added respectively, and magnetically stirred at 20°C for 24 hrs. A sample was taken for solubility test, and the purity of the solution over 24 hrs was tested. Table 18: Solubility test results of different crystal forms of the salts of Compound 2 in media with different pH values

Series [3] in a line: Solid stability test (purity, crystal form, appearance on storage). Here is the method:
Crystal Form A of the hydrochloride, Crystal Form B of the phosphate, and Crystal Form C of the mesylate of Compound 2 and Crystal Form G of the hydrochloride, Crystal Form I of the phosphate, and Crystal Form J of the mesylate of Compound 3 were respectively packaged and stored at an acceleration condition of 40°C/75% RH, a routing condition of 25°C/60% RH, and a high-temperature condition of 60°C, and the purity, crystal form, and appearance of the compounds were evaluated at different times. Table 20. Solid stability test results of Crystal Form A of Compound 2 hydrochloride

The mark [4] stands for this setting: solution in Phosphate buffer pH=6.0, 24 h.
The mark [5] stands for this setting: solution in Phosphate buffer pH=8.0, 24 h.
Setting [6] is: solution in Pure water pH=6.8, 24 h.

By IC50 is commonly meant the concentration that inhibits the measured activity by half. For the compound `Clc1cccc([C@]23CCCC[C@@H]2OCCN3)c1`, the IC50 in series [1] came out at 1.41 µM.

`Clc1ccccc1[C@@]12CCCC[C@H]1OCCN2`: the IC50 in series [1] amounted to 0.849 µM.

Regarding `Clc1cscc1[C@]12CCCC[C@H]1OCCN2`, the “% (10 µM) inhibition on NMDAR-mediated current” value (from here on “% (10 µM) inhibition”) in series [1] came to 88%.

With `Clc1sccc1[C@@]12CCCC[C@H]1OCCN2`, the “% (10 µM) inhibition” value in series [1] is on record as 78%.

As to `Fc1csc([C@]23CCCC[C@H]2OCCN3)c1`, in series [1], the “% (10 µM) inhibition” value is 74%.

For the compound `[2H]C1([2H])CN[C@@]2(c3ccccc3)CCCC[C@H]2O1`, in series [1], the “% (10 µM) inhibition” value was found to be 81%.

For `[2H]C1([2H])CN[C@@]2(c3cccs3)CCCC[C@H]2O1`, the “% (10 µM) inhibition” value in series [1] came to 95%.

Regarding `[2H]C1([2H])CN[C@]2(c3ccccc3)CCCC[C@@H]2O1`, the “% (10 µM) inhibition” value in series [1] is recorded as 70%.

Consider `[2H]C1([2H])CO[C@@H]2CCCC[C@]2(c2ccccc2)N1`, for which the “% (10 µM) inhibition” value in series [1] turned out to be 86%.

Turning to `[2H]C1([2H])CO[C@H]2CCCC[C@@]2(c2ccccc2)N1`, in series [1], the “% (10 µM) inhibition” value came out at 74%.

`[2H]c1c([2H])c([2H])c(C23CCCCC2OCCN3)c([2H])c1[2H]` (stereo not shown): the “% (10 µM) inhibition” value in series [1] amounted to 69%.

`c1cc([C@@]23CCCC[C@@H]2OCCN3)cs1`: the “% (10 µM) inhibition” value in series [1] worked out at 78%.

Consider `c1cc([C@]23CCCC[C@@H]2OCCN3)cs1`, for which the “% (10 µM) inhibition” value in series [1] is 96%.

Consider `c1cc([C@]23CCCC[C@H]2OCCN3)cs1`, for which the “% (10 µM) inhibition” value in series [1] stood at 87%.

Consider `c1csc([C@@]23CCCC[C@@H]2CCCN3)c1`, for which the “% (10 µM) inhibition” value in series [1] came to 30%.

Regarding `c1csc([C@]23CCCC[C@H]2CCCN3)c1`, in series [1], the “% (10 µM) inhibition” value came out at 32%.

With `[2H]C1([2H])CO[C@@H]2CCCC[C@@]2(c2cccc(Cl)c2)N1` (single isomer, unassigned), in series [1], the “% (10 µM) inhibition” value was determined as 77%.

For `[2H]C1([2H])CO[C@H]2CCCC[C@]2(c2cccc(Cl)c2)N1` (single isomer, unassigned), the “% (10 µM) inhibition” value in series [1] is given as 70%.

`Clc1cccc([C@@]23CCCC[C@H]2OCCN3)c1` [Compound 2 mesylate]: in series [1], the IC50 is 0.746 µM.

On to `Clc1cccc([C@@]23CCCC[C@H]2OCCN3)c1` [Compound 2], for which the IC50 in series [1] was 0.654 µM.

Consider `Clc1cccc([C@@]23CCCC[C@H]2OCCN3)c1` [Crystal Form B of Compound 2 phosphate], for which the “Purity (24 h)” value in series [2] (solution in 0.9% physiological saline, 24 h) is listed as 99.88%; in series [2] (setting [4]) it was 99.95%; in series [2] (setting [5]) it was 99.98%; in series [2] (setting [6]), 99.70%. Further, in series [2], the solution stability entry is recorded as “good”. Also, the Appearance entry in series [3] (0D (start of storage)) is “Dry white solid powder”; in series [3] (25°C/60% RH, 5D) it was “White solid powder”; in series [3] (25°C/60% RH, 10D), “White solid powder”; in series [3] (25°C/60% RH, 30D), “White solid powder”; in series [3] (40°C/75% RH, 5D) it was “White solid powder”; in series [3] (40°C/75% RH, 10D) it was “White solid powder”. Further, the Appearance result is “White solid powder” in series [3] (40°C/75% RH, 30D); “White solid powder” in series [3] (60°C, 5D); “White solid powder” in series [3] (60°C, 10D); “White solid powder” in series [3] (60°C, 30D). For the same compound, the “Crystal Form” value in series [3] (0D (start of storage)) is “Crystal Form B”; in series [3] (25°C/60% RH, 5D), “Crystal Form B”; in series [3] (25°C/60% RH, 10D) it was “Crystal Form B”; in series [3] (25°C/60% RH, 30D), “Crystal Form B”; in series [3] (40°C/75% RH, 5D), “Crystal Form B”; in series [3] (40°C/75% RH, 10D), “Crystal Form B”. Further, the “Crystal Form” value is given as “Crystal Form B” in series [3] (40°C/75% RH, 30D); “Crystal Form B” in series [3] (60°C, 5D); “Crystal Form B” in series [3] (60°C, 10D); “Crystal Form B” in series [3] (60°C, 30D). The Purity worked out at 99.98% in series [3] (0D (start of storage)); 99.97% in series [3] (25°C/60% RH, 5D); 99.98% in series [3] (25°C/60% RH, 10D); 99.98% in series [3] (25°C/60% RH, 30D); 99.99% in series [3] (40°C/75% RH, 5D); 99.98% in series [3] (40°C/75% RH, 10D). Also, the Purity is listed as 99.98% in series [3] (40°C/75% RH, 30D); 99.99% in series [3] (60°C, 5D); 99.99% in series [3] (60°C, 10D); 99.99% in series [3] (60°C, 30D).

As to `Clc1ccccc1[C@@]12CCCC[C@H]1OCCN2` [Crystal Form I of Compound 3 phosphate], the entries for the “Purity (24 h)” value in series [2] (setting [4]), in series [2] (setting [5]) and in series [2] (setting [6]) were 99.88%, 99.81% and 99.86%, respectively. In addition, the solution stability result in series [2] is “good”. Also, the Appearance entry in series [3] (0D (start of storage)) is recorded as “Dry white solid powder”; in series [3] (40°C/75% RH, 7D) it was “White solid powder”; in series [3] (60°C, 7D), “White solid powder”. The “Crystal Form” value in series [3] (0D (start of storage)) is reported as “Crystal Form I”; in series [3] (40°C/75% RH, 7D) it was “New crystal form”; in series [3] (60°C, 7D), “Crystal Form I”. Further, the Purity is on record as 99.91% in series [3] (0D (start of storage)); 99.92% in series [3] (40°C/75% RH, 7D); 99.95% in series [3] (60°C, 7D). The crystal form stability entry in series [3] (high-temperature and acceleration conditions) is recorded as “undergoes crystal transformation”.

As for `Clc1ccccc1[C@@]12CCCC[C@H]1OCCN2` [Crystal Form J of Compound 3 mesylate], the “Purity (24 h)” value in series [2] (setting [4]) came out at 99.88%; in series [2] (setting [5]) it was 99.81%; in series [2] (setting [6]), 99.86%. The solution stability entry in series [2] is reported as “good”. Besides, the Appearance result in series [3] (0D (start of storage)) is recorded as “Dry white solid powder”; in series [3] (40°C/75% RH, 7D), “White solid powder”; in series [3] (40°C/75% RH, 30D) it was “White solid powder”; in series [3] (60°C, 7D) it was “White solid powder”; in series [3] (60°C, 30D), “White solid powder”. The “Crystal Form” value in series [3] (0D (start of storage)) is reported as “Crystal Form J”; in series [3] (40°C/75% RH, 7D), “Crystal Form J”; in series [3] (40°C/75% RH, 30D), “Crystal Form J”; in series [3] (60°C, 7D), “Crystal Form J”; in series [3] (60°C, 30D) it was “Crystal Form J”. Besides, the Purity in series [3] (0D (start of storage)) worked out at 99.95%; in series [3] (40°C/75% RH, 7D) it was 99.96%; in series [3] (40°C/75% RH, 30D), 99.95%; in series [3] (60°C, 7D), 99.97%; in series [3] (60°C, 30D), 99.98%.
